Measured values from PubChem BioAssay AID624139 (Broad Institute, 2012).
The entries are a selection whose mix differs from that of the whole data set. Active and inactive are the calls of the source.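 Rule for the calls: active = spot fluorescence over background significantly raised, with a chance value under 7% in all four replicate spots of the compound; inactive = the rest.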

By UniProt entry, the sequences of proteins in these tests, tags left out. Where a name states a change or a piece, a line headed by the entry shows the natural chain unless it says otherwise.
UniProt P19838: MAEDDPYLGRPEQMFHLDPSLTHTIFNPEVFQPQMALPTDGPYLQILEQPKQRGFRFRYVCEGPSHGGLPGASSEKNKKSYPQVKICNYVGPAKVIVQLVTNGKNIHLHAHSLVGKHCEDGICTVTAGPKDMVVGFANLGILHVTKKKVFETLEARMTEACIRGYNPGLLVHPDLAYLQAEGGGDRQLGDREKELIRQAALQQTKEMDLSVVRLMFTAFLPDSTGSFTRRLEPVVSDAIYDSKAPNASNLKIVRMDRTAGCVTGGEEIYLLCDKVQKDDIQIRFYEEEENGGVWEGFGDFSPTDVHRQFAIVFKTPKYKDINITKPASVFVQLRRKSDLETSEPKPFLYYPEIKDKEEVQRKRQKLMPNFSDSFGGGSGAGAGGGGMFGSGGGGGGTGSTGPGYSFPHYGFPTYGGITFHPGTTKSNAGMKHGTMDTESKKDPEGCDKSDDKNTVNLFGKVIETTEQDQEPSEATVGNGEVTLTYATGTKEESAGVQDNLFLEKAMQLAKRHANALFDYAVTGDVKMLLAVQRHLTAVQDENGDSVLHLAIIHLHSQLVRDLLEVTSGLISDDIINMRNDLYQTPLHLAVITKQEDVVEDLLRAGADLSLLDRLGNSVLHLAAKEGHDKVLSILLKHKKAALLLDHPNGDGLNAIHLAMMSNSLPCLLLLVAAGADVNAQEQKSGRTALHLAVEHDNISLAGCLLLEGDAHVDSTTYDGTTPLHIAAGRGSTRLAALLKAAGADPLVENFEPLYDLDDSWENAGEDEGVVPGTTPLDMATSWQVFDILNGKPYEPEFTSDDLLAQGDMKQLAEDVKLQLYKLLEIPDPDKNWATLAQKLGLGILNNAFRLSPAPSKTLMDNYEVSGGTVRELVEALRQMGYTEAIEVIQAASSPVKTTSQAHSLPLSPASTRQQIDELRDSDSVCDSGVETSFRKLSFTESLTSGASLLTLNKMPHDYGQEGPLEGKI

What follows are molecules tested against Nuclear factor NF-kappa-B p105 subunit (Homo sapiens) (UniProt P19838) (assay: binders of NF-kB p50 subunit, primary screen, biochemical, small molecule microarray, anti-His fluorescence (AID 624139;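 note: probe protein is his-tagged human p50 processed subunit at 1 µg/ml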)). Conditions: anti-His fluorescence binding.

Row | SMILES | outcome
1 | COc1ccc(CN2/C(=N\P(=O)(Oc3ccccc3)Oc3ccccc3)Cc3ccccc3C2C2CC2)cc1 (centres undefined) | inactive
2 | COc1ccc(CN2/C(=N/P(=O)(Oc3ccccc3)Oc3ccccc3)CC(C)=CC2C)cc1 (centres undefined) | inactive
3 | CN(C(=O)Cc1ccc(Cl)c(Cl)c1)C1CCCCC1N1CCCC1 (centres undefined) | inactive
4 | C=CC1C=C(C)C/C(=N\P(=O)(Oc2ccccc2)Oc2ccccc2)N1Cc1ccc(OC)cc1 (centres undefined) | inactive
